Laboratory results: patent publication US11357736B2, “Detoxification using nanoparticles” (dated 2022)

Amino acid sequences for entries named in this document (tags omitted). Residues count along the entry.
UniProt P21836, 32-574 limits assumed: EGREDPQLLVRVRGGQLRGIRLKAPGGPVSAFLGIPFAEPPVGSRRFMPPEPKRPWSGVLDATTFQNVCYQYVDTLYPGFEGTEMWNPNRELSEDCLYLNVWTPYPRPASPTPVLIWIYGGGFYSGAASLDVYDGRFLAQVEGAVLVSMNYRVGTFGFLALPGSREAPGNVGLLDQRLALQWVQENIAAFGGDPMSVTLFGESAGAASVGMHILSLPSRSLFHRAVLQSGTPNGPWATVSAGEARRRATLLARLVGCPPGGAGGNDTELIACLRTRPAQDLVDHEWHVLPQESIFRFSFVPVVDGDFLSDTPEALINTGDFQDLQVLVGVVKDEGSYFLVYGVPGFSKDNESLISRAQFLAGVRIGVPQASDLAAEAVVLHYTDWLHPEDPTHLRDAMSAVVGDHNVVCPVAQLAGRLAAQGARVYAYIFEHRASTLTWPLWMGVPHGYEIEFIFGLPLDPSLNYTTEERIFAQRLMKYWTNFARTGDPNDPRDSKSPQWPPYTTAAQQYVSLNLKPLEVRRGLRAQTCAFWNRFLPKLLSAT

Experiments:
[1] = test system: mouse model of OP poisoning (intravenous DDVP); experiment: In vivo OP detoxification following intravenous DDVP challenge; details: DDVP 10 mg/kg i.v.; within 7 min after injection
[2] = target: AChE on RBC ghosts (Mus musculus, UniProt P21836); experiment: In vitro anti-OP effect: AChE activity on RBC ghosts after incubation with DDVP; details: read-out: DDVP concentration required to inhibit 50% of the AChE activity on the RBC ghosts, 30 min
[3] = test system: mouse model of OP poisoning (oral DDVP); experiment: In vivo OP detoxification following oral administration of DDVP; details: DDVP 150 mg/kg oral; within 11 min after administration

SMILES: COP(=O)(OC)OC=C(Cl)Cl
- mortality rate without any treatment [1]: 100%
- IC50 ([2]; 0 mg/mL RBC-NPs): 45.3 µM
- IC50 ([2]; 1 mg/mL RBC-NPs): 195 µM
- IC50 ([2]; 4 mg/mL RBC-NPs): 1410 µM
- mice without any treatment that died [3]: 90%

Like-named read-outs stand apart in the source and are kept apart here.
